Molecular target: FKBP12 (Homo sapiens, UniProt P62942)
Assay: K1 test procedure: inhibition of peptidyl-prolyl isomerase (rotamase) activity of FKBP12, chymotrypsin-coupled assay
Format: biochemical
Details: read-out: K1, apparent Ki, Table XLIII, Formulas XXV to XXIX

Protein sequences, listed by entry. Tags and fused reporters are not part of them.
UniProt P62942, whole entry: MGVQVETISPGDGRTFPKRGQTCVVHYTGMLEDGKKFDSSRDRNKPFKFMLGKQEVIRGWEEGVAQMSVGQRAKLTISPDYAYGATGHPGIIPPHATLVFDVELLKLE

- Ki: 100 nM
SMILES: O=C(C(=O)N1CCC[C@H]1C(=O)OCCCc1ccccc1)c1nccs1

Source: patent US20030203890A1 (priority 2001, published 2003)
